# According to PubChem BioAssay AID1515 (The Scripps Research Institute Molecular Screening Center, 2009):
# Sequences of proteins named here, by UniProt entry; tags and fusion partners are left off. A change or cut given only in a name is not applied to a line headed by its entry.
# UniProt O75884: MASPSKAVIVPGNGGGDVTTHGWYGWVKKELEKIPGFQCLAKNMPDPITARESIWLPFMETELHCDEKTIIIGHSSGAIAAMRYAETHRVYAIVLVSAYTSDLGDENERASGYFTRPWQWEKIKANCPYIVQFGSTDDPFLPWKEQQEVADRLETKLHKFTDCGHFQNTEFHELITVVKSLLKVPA
# Values joined by “and” are separate entries in the source; they are usually repeats but may differ in a detail not shown here. Equal values may be shown once. Only a part is listed here, and it is no random draw. Active and inactive are the calls of the source.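 The calls were made as follows: active = inhibition above the campaign mean of all tested compounds plus 3 SD (cut at about 14% in these data); inactive = the rest.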
# Target: Serine hydrolase RBBP9 (Homo sapiens) (UniProt O75884)
# Test: blockers of RBBP9 serine hydrolase labeling – biochemical, fluorescence polarization, FP-Rh probe, HTS, primary screen (AID 1515);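 also: plate controls were DMSO wells with RBBP9 for no effect and wells lacking RBBP9 protein for full effect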
# Conditions: recombinant RBBP9, FP-Rh probe fluorescence polarization; at 7.94 µM; hits give high values
row,Compound,inhibition
1,CN(C)C(=O)Oc1noc2ccccc12,inactive: 13.7%
2,O=c1c2cc([N+](=O)[O-])ccc2[nH]c2c([N+](=O)[O-])cc([N+](=O)[O-])cc12,inactive: -0.56%
3,Cc1ccccc1OP(=O)(Nc1ccccn1)Oc1ccccc1C,inactive: -8.05%
4,CCC(=O)N1C2C3N(C(=O)CC)C1C1N(C(=O)CC)C(C(N1C(=O)CC)N3C(=O)CC)N2C(=O)CC,inactive: -11.8%
5,CC(=O)NC(SC(=S)N(CC(C)C)CC(C)C)C(Cl)(Cl)Cl (stereo unspecified),inactive: -5.11%
6,Cc1ccc(OP(=O)(Nc2ccccn2)Oc2ccc(C)cc2)cc1,inactive: -0.28%
7,COC(=O)c1cc2c(s1)N=C(c1ccccc1)N(C)P2(=O)N1CCOCC1 (stereo unspecified),inactive: -1.09%
8,Cc1ccc(NP(=O)(Oc2cccc(C)c2)Oc2cccc(C)c2)nc1,inactive: -2.39%
9,CCOC(=O)NC(Sc1ccccc1)C(Cl)(Cl)Cl (stereo unspecified),inactive: -1.11%
10,c1ccc(-c2nn[nH]n2)c(-c2nn[nH]n2)c1,inactive: 7.54%
11,CCNC(=S)/N=C(\N)N[N+](=O)[O-],inactive: -4.63%
12,O=C(NC1CCS(=O)(=O)C1)NP(=S)(Oc1ccccc1)Oc1ccccc1 (stereo unspecified),inactive: -4.28%
13,CC(=O)Nc1ccc(Oc2c([N+](=O)[O-])cc([N+](=O)[O-])cc2[N+](=O)[O-])cc1,inactive: -9.21%
14,CC(=O)Nc1ccc([As](=O)(O)O)c(O)c1,inactive: -0.26%
15,CC(C)(C)C(=O)NC(Sc1ccccc1)C(Cl)(Cl)Cl (stereo unspecified),inactive: 6.22%
16,CCOc1ccc(C2=NCC(CBr)S2)cc1 (stereo unspecified),inactive: -0.28%
17,O=P1(Nc2nc3ccc(Cl)cc3s2)COc2ccccc2O1 (stereo unspecified),inactive: 0.9%
18,c1nnnn1CCn1cnnn1,inactive: -7.49%
19,CC(C)C(=O)NC(Sc1ccccc1)C(Cl)(Cl)Cl (stereo unspecified),inactive: -5.01%
20,O=P(Nc1nccs1)(c1ccccc1)c1ccccc1,inactive: -0.1%
21,O=C(OC1CN2CCC1CC2)c1cccc(Cl)c1 (stereo unspecified),inactive: -7.01%
22,Nc1ccc([As](=O)(O)c2ccc([N+](=O)[O-])cc2)cc1,inactive: -3.66%
23,C(Cc1nn[nH]n1)Cc1nn[nH]n1,inactive: -3.23%
24,O=[As](O)(c1ccccc1)c1ccc(O)cc1,inactive: -13.4%
25,CC(=O)NC(SC(=S)N(C)C)C(Cl)(Cl)Cl (stereo unspecified),inactive: -9.38%
26,O=[N+]([O-])c1ncn(CCn2cnc([N+](=O)[O-])n2)n1,inactive: -2.19%

row,Compound,inhibition
1,O=P(Nc1nc2ccccc2s1)(c1ccccc1)c1ccccc1,inactive: -6.42%
2,O=P(Nc1ccccn1)(c1ccc(Br)cc1)c1ccc(Br)cc1,inactive: 1.27%
3,O=C(O)CNc1ccc([As](=O)(O)O)cc1,inactive: 4.24%
4,O=[N+]([O-])c1cccc(NC2=NCC(CBr)S2)c1 (stereo unspecified),inactive: -8.5%
5,O=[N+]([O-])c1ncn(CCn2ncnc2[N+](=O)[O-])n1,inactive: -4.11%
6,CC(C)(C)C(=O)NC(Sc1ccncn1)C(Cl)(Cl)Cl (stereo unspecified),inactive: -7.31%
7,O=C(Nc1cc([As](=O)(O)O)ccc1O)c1ccccc1,inactive: 6.01%
8,CC1CCN(C(=O)Oc2c(Cl)cc(Cl)c3cccnc23)CC1,inactive: -1.38%
9,CN(C)C(=O)OCCc1n(C)cc[n+]1C,inactive: -5.34%
10,CC(C)=N/N=C(\N)N[N+](=O)[O-],inactive: 2.66%
11,CCN(/C(=N/P(=O)(N1CCOCC1)N1CCOCC1)N1CCOCC1)c1ccc(OC)cc1,inactive: -4.92%
12,C[N+]1=C2C=CC=CC=C2SC12C([N+](=O)[O-])=CC([N+](=O)[O-])=C[C-]2[N+](=O)[O-] (stereo unspecified),inactive: -2.31%
13,Nc1ccc([As](=O)(O)c2ccc(N)cc2)cc1,inactive: -0.12%
14,CCc1nc2c(n1)c1c(non1O)c1c2no[n+]1[O-],inactive: 3.69%
15,O=[N+]([O-])c1cc([N+](=O)[O-])c(CCNc2ccccc2)c([N+](=O)[O-])c1,active: 34.3%
16,Cc1ccc(NP(=O)(Oc2ccccc2)Oc2ccccc2)nc1,inactive: -3.97%
17,O=[N+]([O-])c1cccc2n[nH]nc12,inactive: -4.62%
18,CC(=O)N1C2C3N(C(C)=O)C1C1N(C(C)=O)C(C(N1C(C)=O)N3C(C)=O)N2C(C)=O,inactive: -5.09%
19,COc1ccc(C2=NCC(CBr)S2)cc1 (stereo unspecified),inactive: 6.69%
20,Cc1c2non([O-])c-2c(C)[n+](=O)[n+]1[O-],inactive: -4.01%
21,O=C(NC(Sc1ccncn1)C(Cl)(Cl)Cl)c1ccccc1 (stereo unspecified),inactive: -11%
22,Oc1ccccc1CNc1ccccn1,inactive: -2.75%
23,CC(C)CC(=O)NC(Sc1ccc(Cl)cc1)C(Cl)(Cl)Cl (stereo unspecified),inactive: -9.04%
24,Nc1cc(N)c2nonc2c1[N+](=O)[O-],inactive: -9.17%
25,Clc1ccc(Cl)c(NC2=NCC(CBr)S2)c1 (stereo unspecified),inactive: -3.58%
26,CN1CCCC(OC(=O)C(c2ccccc2)c2ccccc2)C1 (stereo unspecified),inactive: -4.77%

row,Compound,inhibition
1,Cc1ccc(OP(=O)(Nc2nccs2)Oc2ccc(C)cc2)cc1,inactive: 1.57%
2,COc1ccccc1OP(=O)(Nc1ccc(C)cn1)Oc1ccccc1OC,inactive: 1.34%
3,Cc1ccc(N/C(=N/P(=O)(N2CCOCC2)N2CCOCC2)N2CCOCC2)cc1,inactive: -2.4%
4,NC(=O)c1cc([N+](=O)[O-])cc([N+](=O)[O-])c1N,inactive: -1.7%
5,Nc1cccc2ccc([As](=O)(O)O)cc12,inactive: -2.34%
6,CCN(N=Nc1nonc1N)c1nonc1N,inactive: -7.53%
7,Cc1ccc(NP(=O)(Oc2ccccc2F)Oc2ccccc2F)nc1,inactive: -5.97%
8,CCOP(=O)(Nc1ccccc1)OCC,inactive: -7.87% and inactive: -2.82%
9,Cc1cc(SC(NC(=O)c2ccc(F)cc2)C(Cl)(Cl)Cl)ncn1 (stereo unspecified),inactive: -1.59%
10,O=P(Nc1nc2ccc(Cl)cc2s1)(c1ccccc1)c1ccccc1,inactive: -11.6%
11,O=C(O)c1ccccc1[As](=O)(O)O,inactive: -3.32%
12,CC(=O)Nc1ccc([As](=O)(O)O)cc1,inactive: -5.34%
13,O=[N+]([O-])c1cc([N+](=O)[O-])c(-c2ccn[nH]2)s1,inactive: 0.55%
14,CCN(CC)C(=S)SC(NC=O)C(Cl)(Cl)Cl (stereo unspecified),inactive: -7.53%
15,CC(C)NC(=O)NP(=O)(Oc1ccccc1)Oc1ccccc1,inactive: -3.23%
16,ClCCSc1nnc(-c2cccnc2)o1,inactive: 6.91%
17,CC(C)c1ccc(OP(=O)(Nc2ccccn2)Oc2ccccc2F)cc1 (stereo unspecified),inactive: -5.51%
18,Cc1ccc(OP(=O)(Nc2ccc([N+](=O)[O-])cn2)Oc2ccc(C)cc2)cc1,inactive: 0.26%
19,Cc1ccc2nc3c(c(C)c2c1)CC(C(Cl)Cl)S3 (stereo unspecified),inactive: -10.1%
20,O=[As](O)(c1ccc(O)cc1)c1ccccc1O,inactive: -5.21%
21,C[As](=O)(O)c1cccc(C(=O)O)c1,inactive: 2.49%
22,COc1ccc(N/C(=N/P(=O)(N2CCOCC2)N2CCOCC2)N2CCOCC2)cc1,inactive: -4.2%
23,COc1cc(I)ccc1[As](=O)(O)O,inactive: 0.09%
24,COc1ccc2nc(NP(=O)(c3ccccc3)c3ccccc3)sc2c1,inactive: -6.15%
25,Cc1c2c(nc3ccccc13)SC(C(Cl)Cl)C2 (stereo unspecified),inactive: -3.5%
26,Cc1cc(=O)[nH]c(N[N+](=O)[O-])n1,inactive: -7.58%

row,Compound,inhibition
1,O=C(OC1CN2CCC1CC2)C12CC3CC(CC(C3)C1)C2 (stereo unspecified),inactive: -11.1%
2,CCC(C)N(CC(C)C)C(=S)SC(NC(C)=O)C(Cl)(Cl)Cl (stereo unspecified),inactive: 0.54%
3,CCOC(=O)c1ccc(NC(=O)C(C)(CCl)SC)cc1 (stereo unspecified),inactive: 1.61%
4,O=C(COc1ccccc1)OC1CN2CCC1CC2 (stereo unspecified),inactive: -1.61%
5,COP1(=S)c2c(C)nn(CCC#N)c2N=C(c2ccc(F)cc2)N1C (stereo unspecified),inactive: -5.99%
6,O=P(Nc1ccccn1)(c1cccc2ccccc12)c1cccc2ccccc12,inactive: 1.99%
7,Cc1cc(SC(NC=O)C(Cl)(Cl)Cl)ncn1 (stereo unspecified),inactive: -4.65%
8,O=[N+]([O-])c1ccc(Nc2ccc(Oc3ccc([N+](=O)[O-])cc3[N+](=O)[O-])cc2)c([N+](=O)[O-])c1,inactive: 0.46%
9,CCOC(=O)Nc1cccc([As](=O)(O)O)c1,inactive: -8.17%
10,Cc1cc(SC(NC(=O)c2ccccc2)C(Cl)(Cl)Cl)nc(C(C)C)n1 (stereo unspecified),inactive: -10.7%
11,CCOC(=O)Nc1ccc([As](=O)(O)O)c(O)c1,inactive: -2.17%
12,Nc1cccc([As](=O)(O)c2ccccc2)c1,inactive: -6%
13,O=P1(Nc2ccc(Br)cn2)COc2ccccc2OC1,inactive: 0.03%
14,Cc1ccc(OCC(=O)OC2CN3CCC2CC3)cc1 (stereo unspecified),inactive: -7.23%
15,O=[As](O)(c1cccs1)c1cccs1,inactive: 4.69%
16,O=P1(Nc2ncccn2)COc2ccccc2OC1,inactive: 0.37%
17,CN(C)C1(CNC(=O)c2ccc(S(C)(=O)=O)cc2)CCCCC1,inactive: -2.25%
18,O=C(/C=C/c1ccccc1)OC1CN2CCC1CC2 (stereo unspecified),inactive: -4.04%
19,CC1CCC(C(C)C)C(OP(=O)(Nc2ccccn2)c2ccccc2)C1 (stereo unspecified),inactive: -11.7%
20,Cc1nn(-c2ccccc2)c2c1P(=O)(N1CCOCC1)N(C)C(c1ccccc1)=N2 (stereo unspecified),inactive: -12.5%
21,CC(C)/C=N\N=C(\N)N[N+](=O)[O-],inactive: -2.92%
22,CN(C(=O)Cc1ccc(Cl)c(Cl)c1)[C@@H]1CCCC[C@H]1N1CCCC1,inactive: -1.57%
23,CC1(CBr)Cn2c(nc3ccccc3c2=O)S1 (stereo unspecified),inactive: -14.3%
